Source: article PMC10766943, “Synthesis, characterization, Hirshfeld surface analysis, antioxidant and selective β-glucuronidase inhibitory studies of transition metal complexes of hydrazide based Schiff base ligand” (Scientific Reports, 2024)

The substances below were run against T1, β-glucuronidase enzyme (Bos taurus, UniProt A3KMY8) (assay: β-Glucuronidase inhibitory activity (p-nitrophenyl-β-D-glucuronide, 405 nm)). Conditions: β-glucuronidase inhibition, triplicate.
T1 sequence (A3KMY8 24-652): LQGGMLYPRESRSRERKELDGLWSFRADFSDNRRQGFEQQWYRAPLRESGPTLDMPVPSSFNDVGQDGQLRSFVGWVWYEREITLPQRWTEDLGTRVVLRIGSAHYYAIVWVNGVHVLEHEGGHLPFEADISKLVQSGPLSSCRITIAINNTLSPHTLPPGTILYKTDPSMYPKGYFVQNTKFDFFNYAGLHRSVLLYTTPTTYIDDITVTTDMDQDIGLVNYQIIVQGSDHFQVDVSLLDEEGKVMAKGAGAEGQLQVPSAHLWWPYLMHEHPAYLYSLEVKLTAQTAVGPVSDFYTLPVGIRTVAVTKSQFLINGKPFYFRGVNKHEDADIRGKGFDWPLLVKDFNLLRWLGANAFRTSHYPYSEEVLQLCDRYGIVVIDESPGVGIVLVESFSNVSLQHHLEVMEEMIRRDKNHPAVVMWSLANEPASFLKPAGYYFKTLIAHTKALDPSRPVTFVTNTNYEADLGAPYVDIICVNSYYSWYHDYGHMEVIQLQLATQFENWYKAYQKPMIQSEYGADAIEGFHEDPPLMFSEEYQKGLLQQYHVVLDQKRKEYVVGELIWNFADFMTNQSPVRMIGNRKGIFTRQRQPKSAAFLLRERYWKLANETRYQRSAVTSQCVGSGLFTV
Format: biochemical
Experimental: β-Glucuronidase inhibitory activity by hydrazide Schiff base ligand (H-AHMB) and its metal (II) complexes was investigated using standard procedure. […] According to the procedure 185 µL of 0.1 M acetate buffer, 5 µL compound to be tested and 10 µL of enzyme solution were mixed and incubated at 37 °C for 30 min. SpectraMax plus 384, Molecular Devices, USA was used to read on a multiplate reader at 405 nm after the addition of 0.4 mM p-nitrophenyl-β-D-glucuronide (50 µL). All experiments were performed in triplicate.
“Cobalt adduct with N′-[(4-hydroxy-3-methoxyphenyl)methylidene] 2-aminobenzohydrazide [Co-AHMB]” gave an IC50 of 21.7 ± 2.54 µM.
With “Copper adduct with N′-[(4-hydroxy-3-methoxyphenyl)methylidene] 2-aminobenzohydrazide [Cu-AHMB]” the IC50 was 32.3 ± 1 µM.
In the case of “Nickel adduct with N′-[(4-hydroxy-3-methoxyphenyl)methylidene] 2-aminobenzohydrazide [Ni-AHMB]”, the IC50 is reported as 40.6 ± 1.2 µM.
“Zinc adduct with N′-[(4-hydroxy-3-methoxyphenyl)methylidene] 2-aminobenzohydrazide [Zn-AHMB]” was tested, and the IC50 was 17.3 ± 0.68 µM.
